From patent US12195439B1, “C1-substituted isopropylamine fused heterocyclic mescaline derivatives” (Enveric Biosciences Canada Inc., priority 2022, dated 2025) come the findings set out here.

By UniProt entry, the sequences of proteins in these tests, tags left out.
UniProt P23975, whole entry: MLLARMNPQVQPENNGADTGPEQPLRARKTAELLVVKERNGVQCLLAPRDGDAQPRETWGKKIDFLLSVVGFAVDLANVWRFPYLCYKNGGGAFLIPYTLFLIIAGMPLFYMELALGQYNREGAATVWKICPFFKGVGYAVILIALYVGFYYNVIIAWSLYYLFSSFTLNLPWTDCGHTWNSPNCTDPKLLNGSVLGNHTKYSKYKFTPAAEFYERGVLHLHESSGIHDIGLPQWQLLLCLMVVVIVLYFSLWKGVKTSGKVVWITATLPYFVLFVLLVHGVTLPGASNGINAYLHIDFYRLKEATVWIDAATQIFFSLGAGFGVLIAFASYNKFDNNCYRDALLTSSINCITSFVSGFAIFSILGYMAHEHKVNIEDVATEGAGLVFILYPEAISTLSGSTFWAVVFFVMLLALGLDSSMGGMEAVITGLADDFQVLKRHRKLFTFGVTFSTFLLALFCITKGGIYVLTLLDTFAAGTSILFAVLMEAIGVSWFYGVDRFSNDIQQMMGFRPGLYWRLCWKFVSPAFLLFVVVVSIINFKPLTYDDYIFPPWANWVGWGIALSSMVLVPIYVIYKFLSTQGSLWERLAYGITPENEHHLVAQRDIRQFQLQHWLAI

Each structure is given as a SMILES string.

In the assay the target is norepinephrine transporter (NET) (Homo sapiens, UniProt P23975). The assay can be described thus: Eurofins Cerep competition binding assay at norepinephrine transporter. The conditions noted are these: read-out: NET, percent of control-specific binding, 10 μM test ligand, [3H]nisoxetine, recombinant transporter from CHO cells.

Take `CC(NC(C)(C)C)C(=O)c1cccc(Cl)c1` (stereo not shown) [Bupropion, bupropion]: the inhibition at 10 µM stood at 12%.
